Article PMC5427847, “Epilepsy-associated GRIN2A mutations reduce NMDA receptor trafficking and agonist potency – molecular profiling and functional rescue” (Scientific Reports, 2017)

Protein sequences, listed by entry. Tags and fused reporters are not part of them. Residues count along the entry.
UniProt Q12879, 23-1464: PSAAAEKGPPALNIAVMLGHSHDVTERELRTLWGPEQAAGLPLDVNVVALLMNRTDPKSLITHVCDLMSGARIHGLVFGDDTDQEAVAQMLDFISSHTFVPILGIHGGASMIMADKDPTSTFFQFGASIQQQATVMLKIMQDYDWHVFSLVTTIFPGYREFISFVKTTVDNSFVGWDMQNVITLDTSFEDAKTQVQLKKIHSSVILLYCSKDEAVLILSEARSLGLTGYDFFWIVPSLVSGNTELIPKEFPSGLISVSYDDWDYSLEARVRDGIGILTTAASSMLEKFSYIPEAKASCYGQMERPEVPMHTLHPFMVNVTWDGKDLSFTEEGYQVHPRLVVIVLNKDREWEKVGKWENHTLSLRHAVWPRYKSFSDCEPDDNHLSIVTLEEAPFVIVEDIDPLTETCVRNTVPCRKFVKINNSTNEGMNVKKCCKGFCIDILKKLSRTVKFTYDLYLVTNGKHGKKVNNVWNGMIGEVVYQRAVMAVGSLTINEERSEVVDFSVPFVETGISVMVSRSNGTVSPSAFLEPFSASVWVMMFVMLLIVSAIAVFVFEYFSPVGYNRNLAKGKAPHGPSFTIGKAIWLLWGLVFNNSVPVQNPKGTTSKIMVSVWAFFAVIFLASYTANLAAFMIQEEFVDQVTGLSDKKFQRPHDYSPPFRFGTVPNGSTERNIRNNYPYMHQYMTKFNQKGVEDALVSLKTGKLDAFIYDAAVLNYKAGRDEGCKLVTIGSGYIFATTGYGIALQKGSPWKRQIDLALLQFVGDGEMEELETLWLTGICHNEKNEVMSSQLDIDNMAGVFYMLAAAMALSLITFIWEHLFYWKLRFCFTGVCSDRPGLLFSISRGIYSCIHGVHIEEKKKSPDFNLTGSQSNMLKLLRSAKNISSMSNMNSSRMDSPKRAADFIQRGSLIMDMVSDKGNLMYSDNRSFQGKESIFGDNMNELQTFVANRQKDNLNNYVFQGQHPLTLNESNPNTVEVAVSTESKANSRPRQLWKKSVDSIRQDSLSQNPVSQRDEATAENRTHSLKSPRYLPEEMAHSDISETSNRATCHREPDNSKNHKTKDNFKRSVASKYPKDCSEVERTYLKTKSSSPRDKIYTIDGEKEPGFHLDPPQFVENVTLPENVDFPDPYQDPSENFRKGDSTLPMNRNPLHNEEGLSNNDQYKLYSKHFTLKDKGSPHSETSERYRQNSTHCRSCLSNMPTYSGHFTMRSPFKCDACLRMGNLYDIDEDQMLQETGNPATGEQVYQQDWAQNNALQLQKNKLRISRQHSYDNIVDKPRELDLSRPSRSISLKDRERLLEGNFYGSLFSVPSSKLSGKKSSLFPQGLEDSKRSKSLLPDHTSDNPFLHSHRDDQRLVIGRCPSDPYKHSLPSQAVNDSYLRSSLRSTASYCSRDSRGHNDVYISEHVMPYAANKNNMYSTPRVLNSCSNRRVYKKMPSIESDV
UniProt Q12879, 23-1464 P79R: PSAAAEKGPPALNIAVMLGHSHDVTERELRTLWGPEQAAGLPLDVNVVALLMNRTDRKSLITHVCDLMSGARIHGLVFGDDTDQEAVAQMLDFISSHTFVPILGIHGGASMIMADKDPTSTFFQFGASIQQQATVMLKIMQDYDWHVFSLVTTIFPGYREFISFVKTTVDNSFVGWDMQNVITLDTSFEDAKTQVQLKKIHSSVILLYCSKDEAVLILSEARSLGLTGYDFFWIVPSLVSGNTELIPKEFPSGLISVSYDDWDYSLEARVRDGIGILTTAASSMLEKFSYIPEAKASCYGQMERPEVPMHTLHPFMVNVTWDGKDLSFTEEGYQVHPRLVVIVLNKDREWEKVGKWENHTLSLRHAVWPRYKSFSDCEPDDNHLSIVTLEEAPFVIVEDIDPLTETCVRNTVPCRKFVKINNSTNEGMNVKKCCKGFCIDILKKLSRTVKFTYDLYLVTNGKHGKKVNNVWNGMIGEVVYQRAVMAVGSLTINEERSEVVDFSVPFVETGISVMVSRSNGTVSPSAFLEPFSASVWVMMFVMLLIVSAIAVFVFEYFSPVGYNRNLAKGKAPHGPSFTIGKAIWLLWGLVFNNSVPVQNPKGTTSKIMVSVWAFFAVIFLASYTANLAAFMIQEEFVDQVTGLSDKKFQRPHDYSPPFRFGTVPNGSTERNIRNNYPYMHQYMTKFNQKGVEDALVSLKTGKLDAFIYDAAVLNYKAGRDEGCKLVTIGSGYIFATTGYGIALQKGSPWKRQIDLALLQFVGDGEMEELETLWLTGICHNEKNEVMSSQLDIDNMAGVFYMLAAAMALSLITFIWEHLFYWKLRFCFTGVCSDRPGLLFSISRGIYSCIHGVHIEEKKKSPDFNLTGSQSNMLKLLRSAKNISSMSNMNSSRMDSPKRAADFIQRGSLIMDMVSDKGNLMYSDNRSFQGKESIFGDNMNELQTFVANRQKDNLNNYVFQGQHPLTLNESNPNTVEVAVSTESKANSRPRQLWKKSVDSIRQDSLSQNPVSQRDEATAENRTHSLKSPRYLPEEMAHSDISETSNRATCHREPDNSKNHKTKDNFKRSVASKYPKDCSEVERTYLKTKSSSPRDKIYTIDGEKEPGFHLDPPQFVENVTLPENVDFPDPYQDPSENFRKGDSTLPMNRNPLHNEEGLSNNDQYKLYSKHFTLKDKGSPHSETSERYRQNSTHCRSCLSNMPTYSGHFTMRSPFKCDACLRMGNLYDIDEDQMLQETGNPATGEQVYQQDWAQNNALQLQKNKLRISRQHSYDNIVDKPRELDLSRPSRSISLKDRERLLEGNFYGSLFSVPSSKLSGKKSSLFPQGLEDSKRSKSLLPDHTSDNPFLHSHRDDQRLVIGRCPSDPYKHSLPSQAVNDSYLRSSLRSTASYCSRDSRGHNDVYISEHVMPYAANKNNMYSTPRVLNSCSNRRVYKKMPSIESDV
UniProt Q12879, 23-1464 C231Y: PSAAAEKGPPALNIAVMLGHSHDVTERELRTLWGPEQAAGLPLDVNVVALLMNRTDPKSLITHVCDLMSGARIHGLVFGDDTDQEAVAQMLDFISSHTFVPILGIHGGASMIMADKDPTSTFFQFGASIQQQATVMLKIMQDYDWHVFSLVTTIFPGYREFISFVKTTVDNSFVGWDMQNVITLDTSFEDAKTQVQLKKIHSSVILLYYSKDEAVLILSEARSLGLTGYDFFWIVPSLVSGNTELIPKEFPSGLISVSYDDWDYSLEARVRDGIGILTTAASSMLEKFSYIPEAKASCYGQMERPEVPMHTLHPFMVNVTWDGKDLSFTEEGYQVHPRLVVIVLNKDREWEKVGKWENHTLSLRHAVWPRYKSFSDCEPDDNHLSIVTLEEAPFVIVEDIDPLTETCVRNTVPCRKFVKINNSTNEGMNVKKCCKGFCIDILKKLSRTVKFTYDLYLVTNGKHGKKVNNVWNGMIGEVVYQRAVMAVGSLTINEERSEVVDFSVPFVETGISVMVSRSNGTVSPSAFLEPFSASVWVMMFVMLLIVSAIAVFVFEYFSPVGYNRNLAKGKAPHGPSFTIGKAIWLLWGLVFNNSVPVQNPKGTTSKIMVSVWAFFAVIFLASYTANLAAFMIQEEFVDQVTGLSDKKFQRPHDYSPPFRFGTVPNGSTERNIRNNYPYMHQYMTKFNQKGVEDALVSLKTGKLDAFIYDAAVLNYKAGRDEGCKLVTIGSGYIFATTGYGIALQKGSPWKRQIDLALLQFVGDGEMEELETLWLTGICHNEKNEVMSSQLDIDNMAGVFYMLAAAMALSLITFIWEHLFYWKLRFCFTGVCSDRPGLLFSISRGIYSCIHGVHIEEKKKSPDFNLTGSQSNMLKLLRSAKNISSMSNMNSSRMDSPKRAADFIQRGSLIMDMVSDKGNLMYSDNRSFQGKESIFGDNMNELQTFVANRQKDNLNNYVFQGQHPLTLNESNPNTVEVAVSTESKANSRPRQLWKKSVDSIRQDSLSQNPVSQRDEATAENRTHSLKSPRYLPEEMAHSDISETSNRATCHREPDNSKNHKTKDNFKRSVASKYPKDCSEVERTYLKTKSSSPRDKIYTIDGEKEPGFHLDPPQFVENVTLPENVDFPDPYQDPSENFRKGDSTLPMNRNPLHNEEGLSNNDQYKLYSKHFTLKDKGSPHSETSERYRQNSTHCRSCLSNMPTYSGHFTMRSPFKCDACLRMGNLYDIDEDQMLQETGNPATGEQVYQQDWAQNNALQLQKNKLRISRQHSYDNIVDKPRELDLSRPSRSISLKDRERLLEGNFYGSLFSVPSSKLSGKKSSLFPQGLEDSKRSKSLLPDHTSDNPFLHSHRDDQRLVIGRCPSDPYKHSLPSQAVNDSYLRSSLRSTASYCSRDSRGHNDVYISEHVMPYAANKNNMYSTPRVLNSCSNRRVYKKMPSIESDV
UniProt Q12879, 23-1464 C436R: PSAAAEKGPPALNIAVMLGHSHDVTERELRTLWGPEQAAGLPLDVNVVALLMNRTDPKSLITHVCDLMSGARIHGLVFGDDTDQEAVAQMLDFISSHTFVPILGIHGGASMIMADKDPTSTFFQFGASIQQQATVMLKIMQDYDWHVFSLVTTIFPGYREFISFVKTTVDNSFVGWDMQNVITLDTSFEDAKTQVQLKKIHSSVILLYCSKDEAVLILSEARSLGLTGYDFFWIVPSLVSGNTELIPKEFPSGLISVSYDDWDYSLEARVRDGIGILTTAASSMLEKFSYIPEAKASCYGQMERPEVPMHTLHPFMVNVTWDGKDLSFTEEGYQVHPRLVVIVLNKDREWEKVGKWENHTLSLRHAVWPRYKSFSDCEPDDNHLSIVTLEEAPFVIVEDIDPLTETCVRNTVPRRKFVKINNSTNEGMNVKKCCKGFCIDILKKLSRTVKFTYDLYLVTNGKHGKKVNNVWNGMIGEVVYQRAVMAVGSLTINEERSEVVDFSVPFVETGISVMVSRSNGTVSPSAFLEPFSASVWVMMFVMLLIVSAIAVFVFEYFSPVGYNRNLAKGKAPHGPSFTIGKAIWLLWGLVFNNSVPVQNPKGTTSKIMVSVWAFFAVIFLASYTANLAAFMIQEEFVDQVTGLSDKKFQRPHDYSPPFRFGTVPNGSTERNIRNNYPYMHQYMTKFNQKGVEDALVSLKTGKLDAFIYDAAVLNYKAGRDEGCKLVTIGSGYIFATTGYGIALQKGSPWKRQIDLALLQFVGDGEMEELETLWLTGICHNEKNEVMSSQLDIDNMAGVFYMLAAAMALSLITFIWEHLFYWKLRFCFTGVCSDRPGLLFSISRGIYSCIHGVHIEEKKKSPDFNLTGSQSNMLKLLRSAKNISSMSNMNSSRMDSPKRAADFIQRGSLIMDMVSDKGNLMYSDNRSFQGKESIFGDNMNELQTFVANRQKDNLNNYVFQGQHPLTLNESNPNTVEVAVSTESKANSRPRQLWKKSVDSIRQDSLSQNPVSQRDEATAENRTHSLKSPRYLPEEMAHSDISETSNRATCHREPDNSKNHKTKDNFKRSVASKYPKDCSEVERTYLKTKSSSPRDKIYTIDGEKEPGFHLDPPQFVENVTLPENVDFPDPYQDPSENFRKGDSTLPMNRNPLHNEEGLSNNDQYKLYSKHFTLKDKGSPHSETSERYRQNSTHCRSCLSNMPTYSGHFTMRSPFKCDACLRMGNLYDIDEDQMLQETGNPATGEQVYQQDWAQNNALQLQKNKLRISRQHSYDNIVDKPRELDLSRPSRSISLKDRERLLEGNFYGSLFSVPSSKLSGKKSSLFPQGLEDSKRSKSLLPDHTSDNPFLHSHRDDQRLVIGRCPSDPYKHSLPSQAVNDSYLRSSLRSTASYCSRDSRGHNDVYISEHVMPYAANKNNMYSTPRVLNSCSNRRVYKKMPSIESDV

Tests used:
Format in all cases: cell-based
[1] = target: T1, WT GluN2A (NMDAR, co-transfected with GRIN1) (Homo sapiens, UniProt Q05586+Q12879); test: Single-cell calcium-flux imaging, HEK-293 transiently transfected with GRIN1 and WT GRIN2A; details: 100 µM glutamate + 30 µM glycine, relative to cells responding to 100 µM MgATP, ± SEM
T1 construct: expressed in transfected cells; host or cells: HEK-293
Excerpt: (§1) Transfection with GRIN1 is presumed in the figure legends.
(§2) This compound is subsequently referred to as the PAM.

[2] = target: T2, P79R GluN2A (NMDAR, co-transfected with GRIN1) (Homo sapiens, UniProt Q05586+Q12879, P79R); test: Single-cell calcium-flux imaging, HEK-293 transfected with GRIN1 and P79R GRIN2A; details: 100 µM glutamate + 30 µM glycine, relative to cells responding to 100 µM MgATP, not significant vs WT
T2 construct: expressed in transfected cells; host or cells: HEK-293
Excerpt: as §1, §2

[3] = target: T3, C231Y GluN2A (NMDAR, co-transfected with GRIN1) (Homo sapiens, UniProt Q05586+Q12879, C231Y); test: Single-cell calcium-flux imaging, HEK-293 transfected with GRIN1 and C231Y GRIN2A; details: 100 µM glutamate + 30 µM glycine, relative to cells responding to 100 µM MgATP, p < 0.001 vs WT
T3 construct: expressed in transfected cells; host or cells: HEK-293
Excerpt: as §1, §2

[4] = target: T4, C436R GluN2A (NMDAR, co-transfected with GRIN1) (Homo sapiens, UniProt Q05586+Q12879, C436R); test: Single-cell calcium-flux imaging, HEK-293 transfected with GRIN1 and C436R GRIN2A; details: 100 µM glutamate + 30 µM glycine, relative to cells responding to 100 µM MgATP
T4 construct: expressed in transfected cells; host or cells: HEK-293
Excerpt: as §1, §2

[5] = target: T5, G483R GluN2A (NMDAR, co-transfected with GRIN1) (Homo sapiens, UniProt Q05586+Q12879, G483R); test: Single-cell calcium-flux imaging, HEK-293 transfected with GRIN1 and G483R GRIN2A; details: 100 µM glutamate + 30 µM glycine, relative to cells responding to 100 µM MgATP, not significant vs WT
T5 construct: expressed in transfected cells; host or cells: HEK-293
Excerpt: as §1, §2

[6] = target: T6, M705V GluN2A (NMDAR, co-transfected with GRIN1) (Homo sapiens, UniProt Q05586+Q12879, M705V); test: Single-cell calcium-flux imaging, HEK-293 transfected with GRIN1 and M705V GRIN2A; details: 100 µM glutamate + 30 µM glycine, relative to cells responding to 100 µM MgATP, p < 0.01 vs WT
T6 construct: expressed in transfected cells; host or cells: HEK-293
Excerpt: as §1, §2

[7] = target: T7, D731N GluN2A (NMDAR, co-transfected with GRIN1) (Homo sapiens, UniProt Q05586+Q12879, D731N); test: Single-cell calcium-flux imaging, HEK-293 transfected with GRIN1 and D731N GRIN2A; details: 100 µM glutamate + 30 µM glycine, relative to cells responding to 100 µM MgATP
T7 construct: expressed in transfected cells; host or cells: HEK-293
Excerpt: as §1, §2

[8] = target: T5, G483R GluN2A (NMDAR, co-transfected with GRIN1); test: Whole-cell patch clamp recordings of HEK cells transfected with G483R-GRIN2A and GRIN1; details: holding potential −60 mV, glutamate 30 nM to 30 µM co-applied with 30 µM glycine, n = 3

## N[C@@H](CCC(=O)O)C(=O)O [Glutamate, glutamate]
[1]
  Percentage of HEK cells responding to maximal glutamate: 81%
[2]
  Percentage of HEK cells responding to maximal glutamate: 75%
[3]
  Percentage of HEK cells responding to maximal glutamate: 18%
[4]
  Percentage of HEK cells responding to maximal glutamate: no response
[5]
  Percentage of HEK cells responding to maximal glutamate: 61%
[6]
  Percentage of HEK cells responding to maximal glutamate: 49%
[7]
  Percentage of HEK cells responding to maximal glutamate: no response
[8]
  Glutamate concentration response in patch clamp compared with calcium-flux imaging: very similar results to the calcium-flux imaging
